Literature values in patent US12150928B2, “Methods of treating sarin exposure with tetrahydrocannabinol and cannabidiol combinations” (dated 2024).

Tests used:
[1] = in the absence of OP intoxication
[2] = aqueous media, pH values ranging from 1.2 to 7.0

Compound | dose causing severe poisoning [1] [mg] | fatal dose [1] [mg] | solubility [2]
CN1[C@@H]2CC[C@H]1C[C@@H](OC(=O)C(CO)c1ccccc1)C2 (stereo partly drawn) | 2 | 100 | 
CCCCCCC(C)(C)c1cc(O)c2c(c1)OC(C)(C)[C@@H]1CCC(=O)C[C@@H]21 (racemic) |  |  | less than 0.5 mg/L
